Assay results from patent publication US20240398973A1, “ENGINEERED ANTIBODY COMPOUNDS AND CONJUGATES THEREOF” (Eli Lilly and Company, priority 2017, published 2024).

What was measured:
[1] = system: human primary PMNs; experiment: PMN reactive oxygen species (ROS) production, luminol-amplified chemiluminescence; assay type: cell-based; settings: for PMN ROS production: relative to 1000 nM fMLF
Protocol: (§1) Production of ROS by human primary PMNs is measured using luminol-amplified chemiluminescence. Following isolation, PMNs are suspended at 1×10^6 cells/ml in HBSS containing calcium and magnesium (Gibco #14025-092) supplemented with 0.25% human serum albumin (Gemini Bio producst #800-124) and 50 uM Luminol (SigmaAldrich #123072-2.5G). 100 μl of cell suspension (1×10^5 total cells) is then distributed into each well of a 96-well plate suitable for fluorescence measurement (Greiner #655098) and temperature equilibrated to 37° C. for 5 minutes. Following equilibration, 10× solution of antibody conjugate is applied to the wells, achieving a 1× final concentration.
(§2) Immediately after the addition of antibody conjugate, chemiluminescence signal is recorded in a luminometer maintained at 37° C. with 0.01 seconds dwell time per well, 20 seconds total time between sequential plate readings and 45 minutes total run time (PerkinElmer EnVision Multilabel Plate Reader).

[2] = system: Mouse neutrophils purified from marrow; experiment: Mouse PMN ROS production; assay type: cell-based; settings: relative to 10000 nM fMLF, AUC 5 minutes (Table 8c)
Protocol: as §1, §2
Mouse neutrophils purified from marrow were exposed to formyl peptides or antibody conjugates and ROS production was measured using luminol amplified chemiluminescence essentially as described above.

TMab-G1-UC-HC-124C-378C: unconjugated trastuzumab-variable-region IgG1 with HC 124C and 378C; HC SEQ ID NO:6, LC SEQ ID NO:7
PMN ROS production ([1]; 1 nM, AUC 5 minutes (Tables 9, 11)): 10.4 percentage | PMN ROS production ([1]; 3 nM, AUC 5 minutes (Tables 9, 11)): 10.5 percentage | PMN ROS production ([1]; 10 nM, AUC 5 minutes (Tables 9, 11)): 10.8 percentage | PMN ROS production ([1]; 30 nM, AUC 5 minutes (Tables 9, 11)): 10.6 percentage | PMN ROS production ([1]; 100 nM, AUC 5 minutes (Tables 9, 11)): 10.5 percentage | PMN ROS production, Exposure: Buffer ([1]; 300 nM, Buffer, relative to fMLF, AUC 5 minutes (Table 12a)): 18.1 percentage | PMN ROS production, Exposure: Cyclosporin H ([1]; 300 nM, PMNs pre-incubated with 1 uM Cyclosporin H for 30 minutes, relative to fMLF (Table 12a)): 18.2 percentage | PMN ROS production ([1]; 300 nM, AUC 5 minutes (Tables 9, 11)): 10.6 percentage | PMN ROS production ([1]; 1000 nM, AUC 5 minutes (Tables 9, 11)): 12.8 percentage | Mouse PMN ROS Production ([2]; 1 nM): 15.8 percentage | Mouse PMN ROS Production ([2]; 3 nM): 15.8 percentage | Mouse PMN ROS Production ([2]; 10 nM): 14.7 percentage | Mouse PMN ROS Production ([2]; 30 nM): 16.3 percentage | Mouse PMN ROS Production ([2]; 100 nM): 16.4 percentage | Mouse PMN ROS Production ([2]; 300 nM): 18.4 percentage | Mouse PMN ROS Production ([2]; 1000 nM): 13.9 percentage

TMab: TMab (trastuzumab), parental anti-HER2 IgG1 antibody [reference compound]
PMN ROS production ([1]; 1 nM, AUC 5 minutes (Table 12b)): 13.6 percentage | PMN ROS production ([1]; 3 nM, AUC 5 minutes (Table 12b)): 14.6 percentage | PMN ROS production ([1]; 10 nM, AUC 5 minutes (Table 12b)): 13.3 percentage | PMN ROS production ([1]; 30 nM, AUC 5 minutes (Table 12b)): 13.9 percentage | PMN ROS production ([1]; 100 nM, AUC 5 minutes (Table 12b)): 18.7 percentage | PMN ROS production ([1]; 300 nM, AUC 5 minutes (Table 12b)): 12.1 percentage | PMN ROS production ([1]; 1000 nM, AUC 5 minutes (Table 12b)): 11.3 percentage
